A short description of this data set: Evaluation of solubility in resist solvents (PGMEA, PGME, EL). As to conditions: concentration at which the acid generator was completely dissolved. As to the method:
The solution of propylene glycol monomethyl ether acetate (PGMEA), propylene glycol monomethyl ether (PGME), or ethyl lactate (EL) with each compound described above was prepared, while changing the concentration. After the preparation, each solution was stirred, and then the concentration in which each acid generator was completely dissolved was measured.

The values below come from patent US20090317741A1, “COMPOUND, ACID GENERATOR, RESIST COMPOSITION AND METHOD OF FORMING RESIST PATTERN” (Tokyo Ohka Kogyo Co., Ltd., priority 2006, published 2009).

As to “di(1-naphthyl)phenylsulfonium nonafluorobutanesulfonate [(B)-2, reference compound]”, the “Solubility in EL” value (ethyl lactate) worked out at 5 % by weight. Besides, the “Solubility in PGMEA” value (propylene glycol monomethyl ether acetate) was 2 % by weight. The “Solubility in PGME” value (propylene glycol monomethyl ether) is on record as 5 % by weight.
